# Measured values reported in ChEMBL document CHEMBL3885861, “Open TG-GATES”.
# What was measured:
# Rattus norvegicus [1] = organism: Rattus norvegicus; assay: Open TG-GATES - Regimen: Daily Repeat; format: toxicity, organism-based, Sprague-Dawley; set-up: regimen Daily Repeat, gender Male, age 6 weeks; settings: in vivo, po, route gavage; for MCH: tissue Blood; for A/G / TC: tissue Plasma
# Rattus norvegicus [2] = organism: Rattus norvegicus; assay: Open TG-GATES - Regimen: Single; format: toxicity, organism-based, Sprague-Dawley; set-up: regimen Single, gender Male, age 6 weeks; settings: in vivo, po, route gavage; for A/G / TC: tissue Plasma; for MCH: tissue Blood
# [3] = 0 mg/kg, 72 h, dose level Control, time 3 day
# [4] = 0 mg/kg, […], dose level Control, time 14 day
# [5] = 0 mg/kg, […], dose level Control, time 7 day
# [6] = 0 mg/kg, […], dose level Control, time 28 day
# [7] = 0 mg/kg, 3 h, dose level Control
# [8] = 0 mg/kg, 6 h, dose level Control
# [9] = 0 mg/kg, 9 h, dose level Control
# [10] = 0 mg/kg, 24 h, dose level Control
# [11] = 100 mg/kg, 72 h, dose level Low, time 3 day
# [12] = 100 mg/kg, […], dose level Low, time 7 day
# [13] = 100 mg/kg, […], dose level Low, time 14 day
# [14] = 100 mg/kg, […], dose level Low, time 28 day
# [15] = 300 mg/kg, 72 h, dose level Middle, time 3 day
# [16] = 300 mg/kg, […], dose level Middle, time 7 day
# [17] = 300 mg/kg, […], dose level Middle, time 14 day
# [18] = 300 mg/kg, […], dose level Middle, time 28 day
# [19] = 1000 mg/kg, 72 h, dose level High, time 3 day
# [20] = 1000 mg/kg, […], dose level High, time 7 day
# [21] = 1000 mg/kg, […], dose level High, time 14 day
# [22] = 1000 mg/kg, […], dose level High, time 28 day
# [23] = 100 mg/kg, 24 h, dose level Low
# [24] = 300 mg/kg, 3 h, dose level Middle
# [25] = 300 mg/kg, 6 h, dose level Middle
# [26] = 300 mg/kg, 9 h, dose level Middle
# [27] = 1000 mg/kg, 3 h, dose level High
# [28] = 1000 mg/kg, 9 h, dose level High
# [29] = 1000 mg/kg, 24 h, dose level High
smiles,measurement,setting,value
CS(=O)(=O)Nc1ccc([N+](=O)[O-])cc1Oc1ccccc1 [NIMESULIDE],MCH,Rattus norvegicus [1]; [3],21.3 pg
same,A/G,Rattus norvegicus [1]; [3],2.7
same,MCH,Rattus norvegicus [1]; [4],21.3 pg
same,A/G,Rattus norvegicus [1]; [5],2.4
same,A/G,Rattus norvegicus [1]; [4],2.1
same,A/G,Rattus norvegicus [1]; [6],2.1
same,A/G,"Rattus norvegicus [1]; 10 mg/kg, 72 h, dose level Low, time 3 day",2.6
same,A/G,"Rattus norvegicus [1]; 10 mg/kg, […], dose level Low, time 7 day",2.3
same,A/G,"Rattus norvegicus [1]; 10 mg/kg, […], dose level Low, time 14 day",2
same,A/G,"Rattus norvegicus [1]; 10 mg/kg, […], dose level Low, time 28 day",2
same,A/G,"Rattus norvegicus [1]; 30 mg/kg, 72 h, dose level Middle, time 3 day",2.7
same,A/G,"Rattus norvegicus [1]; 30 mg/kg, […], dose level Middle, time 7 day",2.3
same,A/G,"Rattus norvegicus [1]; 30 mg/kg, […], dose level Middle, time 14 day",2.2
same,A/G,"Rattus norvegicus [1]; 30 mg/kg, […], dose level Middle, time 28 day",1.8
same,A/G,"Rattus norvegicus [1]; 100 mg/kg, 72 h, dose level High, time 3 day",2.8
same,A/G,"Rattus norvegicus [1]; 100 mg/kg, […], dose level High, time 7 day",2
same,A/G,"Rattus norvegicus [1]; 100 mg/kg, […], dose level High, time 14 day",2
same,A/G,"Rattus norvegicus [1]; 100 mg/kg, […], dose level High, time 28 day",2.2
same,A/G,Rattus norvegicus [2]; [7],2.4
same,A/G,Rattus norvegicus [2]; [8],2.4
same,A/G,Rattus norvegicus [2]; [9],3
same,A/G,Rattus norvegicus [2]; [10],2.9
same,MCH,"Rattus norvegicus [2]; 30 mg/kg, 3 h, dose level Low",21.3 pg
same,A/G,"Rattus norvegicus [2]; 30 mg/kg, 3 h, dose level Low",2.6
same,A/G,"Rattus norvegicus [2]; 30 mg/kg, 6 h, dose level Low",2.5
same,A/G,"Rattus norvegicus [2]; 30 mg/kg, 9 h, dose level Low",2.9
same,MCH,"Rattus norvegicus [2]; 30 mg/kg, 24 h, dose level Low",21.3 pg
same,A/G,"Rattus norvegicus [2]; 30 mg/kg, 24 h, dose level Low",2.7
same,A/G,"Rattus norvegicus [2]; 100 mg/kg, 3 h, dose level Middle",3
same,A/G,"Rattus norvegicus [2]; 100 mg/kg, 6 h, dose level Middle",2.4
same,A/G,"Rattus norvegicus [2]; 100 mg/kg, 9 h, dose level Middle",3
same,A/G,"Rattus norvegicus [2]; 100 mg/kg, 24 h, dose level Middle",2.6
same,A/G,"Rattus norvegicus [2]; 300 mg/kg, 3 h, dose level High",2.9
same,A/G,"Rattus norvegicus [2]; 300 mg/kg, 6 h, dose level High",2.5
same,A/G,"Rattus norvegicus [2]; 300 mg/kg, 9 h, dose level High",3
same,A/G,"Rattus norvegicus [2]; 300 mg/kg, 24 h, dose level High",3
CN(C)C(=N)N=C(N)N [METFORMIN],MCH,Rattus norvegicus [1]; [3],21.8 pg
same,TC,Rattus norvegicus [1]; [3],86 mg/dL
same,MCH,Rattus norvegicus [1]; [5],21.8 pg
same,MCH,Rattus norvegicus [1]; [4],20.9 pg
same,MCH,Rattus norvegicus [1]; [6],19.8 pg
same,TC,Rattus norvegicus [1]; [5],77.8 mg/dL
same,TC,Rattus norvegicus [1]; [4],73.6 mg/dL
same,TC,Rattus norvegicus [1]; [6],71.4 mg/dL
same,MCH,Rattus norvegicus [1]; [11],21.7 pg
same,TC,Rattus norvegicus [1]; [11],84 mg/dL
same,MCH,Rattus norvegicus [1]; [12],21.4 pg
same,MCH,Rattus norvegicus [1]; [13],20.9 pg
same,MCH,Rattus norvegicus [1]; [14],19.6 pg
same,TC,Rattus norvegicus [1]; [12],77.8 mg/dL
same,TC,Rattus norvegicus [1]; [13],83.8 mg/dL
same,TC,Rattus norvegicus [1]; [14],82 mg/dL
same,MCH,Rattus norvegicus [1]; [15],21.3 pg
same,TC,Rattus norvegicus [1]; [15],79.6 mg/dL
same,MCH,Rattus norvegicus [1]; [16],21.1 pg
same,MCH,Rattus norvegicus [1]; [17],20.8 pg
same,MCH,Rattus norvegicus [1]; [18],19.7 pg
same,TC,Rattus norvegicus [1]; [16],81 mg/dL
same,TC,Rattus norvegicus [1]; [17],81.8 mg/dL
same,TC,Rattus norvegicus [1]; [18],71.4 mg/dL
same,MCH,Rattus norvegicus [1]; [19],21.5 pg
same,TC,Rattus norvegicus [1]; [19],75.8 mg/dL
same,MCH,Rattus norvegicus [1]; [20],20.9 pg
same,MCH,Rattus norvegicus [1]; [21],20.5 pg
same,MCH,Rattus norvegicus [1]; [22],19.8 pg
same,TC,Rattus norvegicus [1]; [20],76.2 mg/dL
same,TC,Rattus norvegicus [1]; [21],77.6 mg/dL
same,TC,Rattus norvegicus [1]; [22],70.6 mg/dL
same,MCH,Rattus norvegicus [2]; [7],21.6 pg
same,MCH,Rattus norvegicus [2]; [8],20.9 pg
same,TC,Rattus norvegicus [2]; [8],76.6 mg/dL
same,MCH,Rattus norvegicus [2]; [9],21.5 pg
same,MCH,Rattus norvegicus [2]; [10],21.8 pg
same,TC,Rattus norvegicus [2]; [10],73.6 mg/dL
same,MCH,"Rattus norvegicus [2]; 100 mg/kg, 3 h, dose level Low",21.8 pg
same,MCH,"Rattus norvegicus [2]; 100 mg/kg, 6 h, dose level Low",21 pg
same,TC,"Rattus norvegicus [2]; 100 mg/kg, 6 h, dose level Low",78.4 mg/dL
same,MCH,"Rattus norvegicus [2]; 100 mg/kg, 9 h, dose level Low",21.3 pg
same,TC,"Rattus norvegicus [2]; 100 mg/kg, 9 h, dose level Low",71.8 mg/dL
same,MCH,Rattus norvegicus [2]; [23],21.7 pg
same,TC,Rattus norvegicus [2]; [23],73.4 mg/dL
same,MCH,Rattus norvegicus [2]; [24],21.1 pg
same,TC,Rattus norvegicus [2]; [24],81.8 mg/dL
same,MCH,Rattus norvegicus [2]; [25],21.2 pg
same,TC,Rattus norvegicus [2]; [25],76.8 mg/dL
same,MCH,Rattus norvegicus [2]; [26],21.5 pg
same,TC,Rattus norvegicus [2]; [26],77.2 mg/dL
same,MCH,"Rattus norvegicus [2]; 300 mg/kg, 24 h, dose level Middle",21.4 pg
same,MCH,Rattus norvegicus [2]; [27],21.2 pg
same,TC,Rattus norvegicus [2]; [27],79.2 mg/dL
same,MCH,"Rattus norvegicus [2]; 1000 mg/kg, 6 h, dose level High",21.5 pg
same,MCH,Rattus norvegicus [2]; [28],21.9 pg
same,TC,Rattus norvegicus [2]; [28],79.8 mg/dL
same,MCH,Rattus norvegicus [2]; [29],21.6 pg
same,TC,Rattus norvegicus [2]; [29],79 mg/dL
